The nature of this series: in vivo. The conditions noted are these: rat, rats, oral, read-out: acute oral LD50. As for the experimental part:
The acute oral LD50 's of compounds of formula (I) in rats were determined by standard techniques.

Broadly, the LD50 is the dose at which mortality reaches 50%. As to `CCC(C)(C)C1CCC(C2=C(O)C(=O)c3ccccc3C2=O)CC1` (stereo not shown) [2-hydroxy-3-(4'-t-pentylcyclohexyl)-1,4-naphthoquinone], the LD50 is 2000 mg/kg.

Values taken from patent US4485117A, “Antiprotozoal compounds” (priority 1981, dated 1984).
